# Reported boiling point values for industrial, environmental and drug-like chemicals

Boiling points are in °C, nominally at 760 mmHg.
The databases behind each value are named after "via".

For CCCN(CC)CCC the data give bp 138 °C (via OCHEM). Listed for FC(=CC(F)(F)C(F)(F)C(F)(F)F)C(F)(F)C(F)(F)F: bp 69.5 °C (via ChemicalBook). COC(=O)N(OC)c1ccccc1COc1c(C)c(-c2ccccc2)nn1C is reported with bp 496 °C (via OCHEM). Listed for O=C(OCC(F)(F)C(F)(F)C(F)(F)F)C(F)(F)C(F)(F)C(F)(F)F: bp 124 °C (via ChemicalBook). The entry for C=CC=CCl lists bp 68 °C (via OCHEM). The entry for CC(C)P(=O)(CCCCCCCCCCCCP(=O)(C(C)C)C(C)C)C(C)C lists bp 245.6 °C (via eChemPortal). Listed for Cc1ccc(Nc2ccc(Nc3ccc(C)cc3)c3c2C(=O)c2ccccc2C3=O)cc1: bp 489 °C (via eChemPortal).

Listed for C=CCOC(=O)OCCOCCOC(=O)OCC=C: bp 362.9 °C (via eChemPortal). The entry for CC(=CC(C)C)C(C)O (centres undefined) lists bp 167 °C (via eChemPortal). The entry for C[Si](C)(C)O[Si](C)(C(F)(F)C(F)(F)C(F)(F)CCC(F)(F)F)C(F)(F)C(F)(F)C(F)(F)CCC(F)(F)F lists bp 150 °C (via ChemicalBook). Listed for C/C(C=O)=C\c1ccc(CC(C)C)cc1: bp 285 °C (via eChemPortal). Listed for CC(OCCCl)OCCCl: bp 195 °C (via OCHEM). CCN(CC)C(=O)CC(C)=O has bp 163.2 °C (via eChemPortal). Listed for CC(C)(C)[C@H]1CCCC[C@H]1O (relative stereo): bp 213 °C (via eChemPortal).

For CC1CCOCO1 (centres undefined) the data give bp 114 °C (via OCHEM). The entry for CC(C)(C)C(O)=NC1CCCCC1I (centres undefined) lists bp 216 °C (via eChemPortal). Listed for CC1=CC(C)CC(C)C1 (centres undefined): bp 141 °C (via OCHEM). FC(F)=C(F)C(F)(F)C(F)(Cl)C(F)(F)Cl (centres undefined) is reported with bp 91 °C (via ChemicalBook). CC(=O)OCCC(F)(F)C(F)(F)C(F)(F)F is reported with bp 137.2 °C (via ChemicalBook). C1=CCCCC=CC1 is reported with bp 145 °C (via OCHEM). CCCCCCCCCCCCCCCC[Si](OC)(OC)OC is reported with bp 351.1 °C (via eChemPortal).

Listed for CN(c1ccccc1)C(C)(C)C: bp 278 °C (via OCHEM). For Clc1ccc(Oc2cccc(Cl)c2)cc1 the data give bp 318.1 °C (via eChemPortal). CC(=O)CCCC(C)CCCC(C)C (centres undefined) has bp 253.5 °C (via eChemPortal). Cn1c(=O)c2c(ncn2C)n(C)c1=O is reported with bp 178 °C (via PubChem). The entry for O=C1CCC(C(=O)O)N1 (centres undefined) lists bp 265.4 °C (via eChemPortal). Listed for NCC(F)(F)C(F)(F)C(F)(F)C(F)(F)C(F)(F)F: bp 107 °C (via ChemicalBook). The entry for COc1ccc(C(CCCc2ccccc2)N(C)C)cc1OC (centres undefined) lists bp 167 °C (via OCHEM).

CC1(C)C2CC3C1C3(C)C2 (centres undefined) is reported with bp 145 °C (via OCHEM). For COCCOCc1nc(C(F)(F)F)ccc1C(=O)C1=C(O)C2CCC(C2)C1=O (centres undefined) the data give bp 490 °C (via OCHEM).

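The numbers are reported measurements, compiled and curated for the OPERA QSAR suite. A listed value is a point estimate from one report or more. Method, purity and exact conditions of the single measurements are not given. Where a salt, mixture or single isomer is drawn, the source does not say that exactly this form was tested. Some upstream entries may be estimates or bounds without being marked so.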

From the experimental data distributed with OPERA 2.9.